# Test results published in patent US9918964B2, “Reducing platelet activation, aggregation and platelet-stimulated thrombosis or blood coagulation by reducing mitochondrial respiration” (priority 2010, dated 2018).
# Only a part of the results on these compounds is given; other tests are left out.
# Tested on: platelets in whole blood
# Test: Platelet function testing with the Hemostasis Mechanism Analyzer (HMA): clumping, sticking, clotting in whole blood
# Assay type: cell-based, human
# Details: 0 dosage = 100
compound,measurement,setting,value
n1nc(-c2nn[nH]n2)n[nH]1,% clot time increase,Dosage (mg/ml) 0.67,108%
same,% clump time increase,Dosage (mg/ml) 0.67,110%
same,% stick time increase,Dosage (mg/ml) 0.67,114%
same,% clot time increase,Dosage (mg/ml) 2,128%
same,% clump time increase,Dosage (mg/ml) 2,145%
same,% stick time increase,Dosage (mg/ml) 2,157%
same,% clot time increase,Dosage (mg/ml) 2.7,145%
same,% clump time increase,Dosage (mg/ml) 2.7,255%
same,% stick time increase,Dosage (mg/ml) 2.7,225%
same,% clot time increase,Dosage (mg/ml) 3.3,190%
same,% clump time increase,Dosage (mg/ml) 3.3,441%
same,% stick time increase,Dosage (mg/ml) 3.3,413%
same,% clot time increase,Dosage (mg/ml) 5,542%
same,% clump time increase,Dosage (mg/ml) 5,2293%
same,% stick time increase,Dosage (mg/ml) 5,1852%
